Patent US8084647B2, “Two-photon probe for real-time monitoring of intracellular calcium ions, method for preparing the probe and method for real-time monitoring of intracellular calcium ions using the probe” (Korea University Industry and Academy Cooperation Foundation, priority 2007, dated 2011)

Assays:
[1] = One-photon absorption and emission spectra, fluorescence quantum yield; type: physicochemical; details: MOPS buffer pH 7.2, presence of 39 μM free Ca2+
Protocol: The absorption spectra of the compound of Formula 7 were recorded on a Hewlett-Packard 8453 diode array spectrophotometer, and the fluorescence spectra of the compound were obtained with Amico-Bowman series 2 luminescence spectrometer with a 1 cm standard quartz cell. The fluorescence quantum yield of the compound was determined by using Coumarin 307 as the reference by the literature method (J. N. Demas, G. A. Crosby, J. Phys. Chem. 1971, 75, 991-1024.).

[2] = Two-photon action spectra / two-photon cross section; type: physicochemical; details: presence of 39 μM free Ca2+
Text: The TP action spectra of the Ca^2+ complexes with the compound of Formula 4 and OG1 in buffer solutions indicated a value of 110 GM at 780 nm for Φδ for the compound of Formula 4-Ca^2+, 5-fold larger than that of OG1-Ca^2+. Thus, TPM images for samples stained with the compound of Formula 4 would be much brighter than those stained with commercial probe. In addition, the two-photon fluorescence enhancement factor (TFEF) estimated from the two-photon titration curve was 44 (Table 2), a value that allowed detection of Ca^2+ by TPM.
The two-photon cross section (δ) was determined by using femto second (fs) fluorescence measurement technique (S. K. Lee, W. J. Yang, J. J. Choi, C. H. Kim, S.-J, Jeon, B. R. Cho, Org. Lett. 2005, 7, 323-326).

Oregon Green 488 BAPTA-1 [OG1, reference compound]
λmax^(l) one-photon absorption [1]: 494 nm | λmax^fl one-photon emission [1]: 523 nm | Φ fluorescence quantum yield ([1]; ±10%): 0.66 | Φδ two-photon action cross section [2]: 24 GM | λmax^(2) of the two-photon excitation spectra [2]: 800 nm | δ peak two-photon cross section ([2]; ±15%): 37 GM
